{"sequences": {"note": "The chains behind the UniProt entries cited, without tags or fusion partners.", "UniProt Q07820, whole entry": "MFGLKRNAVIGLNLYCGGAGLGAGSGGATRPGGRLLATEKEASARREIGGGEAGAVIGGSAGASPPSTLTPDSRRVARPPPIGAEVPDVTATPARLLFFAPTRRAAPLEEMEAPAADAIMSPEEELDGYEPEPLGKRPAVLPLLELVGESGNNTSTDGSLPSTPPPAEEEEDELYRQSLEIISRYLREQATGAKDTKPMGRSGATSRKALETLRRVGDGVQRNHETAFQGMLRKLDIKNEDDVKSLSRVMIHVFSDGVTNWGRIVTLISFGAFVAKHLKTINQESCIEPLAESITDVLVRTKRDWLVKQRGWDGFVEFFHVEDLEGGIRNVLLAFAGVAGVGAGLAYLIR"}, "source": "patent US8039668B2", "about": "“Naphthalene-based inhibitors of anti-apoptotic proteins” (Burnham Institute for Medical Research, priority 2008, dated 2011)", "molecular_target": "Mcl-1 (Homo sapiens, UniProt Q07820)", "test": "Competitive fluorescence polarization assay (FPA), Bim BH3 peptide", "type": "binding", "settings": "text b221", "data": [{"compound": "Cc1cc2c(C(=O)NCC(C)c3ccccc3)c(O)c(O)cc2c(O)c1-c1c(C)cc2c(C(=O)NCC(C)c3ccccc3)c(O)c(O)cc2c1O", "note": "(stereo not shown) [Compound 8r, 1,1′,6,6′,7,7′-hexahydroxy-3,3′-dimethyl-N^5,N^5′-bis(2-phenylpropyl)-2,2′-binaphthyl-5,5′-dicarboxamide]", "values": [{"measurement": "IC50", "result": 280, "unit": "nM"}]}]}
